Source: PubChem BioAssay AID588517 (NMMLSC, 2011)
This is a selection; strong and weak results do not stand in their true shares. Activity calls are given as the source filed them.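 How the source made its calls: active means fluorescence ratio to DMSO above its plate's cutoff, the plate mean ratio plus 5 SD (cut at about 210% in these data); inactive means the rest.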

test: compound autofluorescence in empty-vector yeast, confirmation, artefact control for antifungal efflux pump inhibitor project, S. cerevisiae AD/pABC3, flow cytometry, Cherry Pick1 set (AID 588517); conditions: at 10 µM, active compounds read high;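 further: unstained yeast with no Nile Red so the signal is compound autofluorescence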

Row | SMILES | fluorescence ratio to DMSO
1 | O=P(Nc1nccs1)(c1ccccc1)c1nc2ccccc2s1 (stereo unspecified) | inactive: 103%
